In ChEMBL document CHEMBL1145093, “Synthesis and biological evaluation of 14-alkoxymorphinans. 20. 14-phenylpropoxymetopon: an extremely powerful analgesic” (2003):
pKi: −log10 of the molar value.

The chains behind the UniProt entries cited, without tags or fusion partners.
UniProt P33533, whole entry: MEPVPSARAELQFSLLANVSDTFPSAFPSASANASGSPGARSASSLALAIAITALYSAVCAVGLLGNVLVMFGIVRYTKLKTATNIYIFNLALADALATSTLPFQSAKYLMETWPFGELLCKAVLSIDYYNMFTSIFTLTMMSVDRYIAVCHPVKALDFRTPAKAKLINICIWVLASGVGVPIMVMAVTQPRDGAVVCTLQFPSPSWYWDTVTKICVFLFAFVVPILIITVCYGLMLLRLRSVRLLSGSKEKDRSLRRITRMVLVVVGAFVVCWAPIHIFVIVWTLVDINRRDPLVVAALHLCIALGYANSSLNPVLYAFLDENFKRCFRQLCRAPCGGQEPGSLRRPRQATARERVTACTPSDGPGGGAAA
UniProt P33535, whole entry: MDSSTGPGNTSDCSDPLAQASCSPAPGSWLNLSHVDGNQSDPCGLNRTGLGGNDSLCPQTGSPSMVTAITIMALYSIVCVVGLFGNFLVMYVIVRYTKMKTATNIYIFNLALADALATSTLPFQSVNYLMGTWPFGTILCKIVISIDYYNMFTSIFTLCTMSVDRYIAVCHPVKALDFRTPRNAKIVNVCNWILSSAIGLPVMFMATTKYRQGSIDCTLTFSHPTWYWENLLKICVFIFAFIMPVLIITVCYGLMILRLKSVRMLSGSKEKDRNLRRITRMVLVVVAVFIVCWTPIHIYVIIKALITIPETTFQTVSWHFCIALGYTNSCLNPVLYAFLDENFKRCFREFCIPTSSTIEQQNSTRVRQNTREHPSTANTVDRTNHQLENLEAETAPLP
UniProt P34975, whole entry: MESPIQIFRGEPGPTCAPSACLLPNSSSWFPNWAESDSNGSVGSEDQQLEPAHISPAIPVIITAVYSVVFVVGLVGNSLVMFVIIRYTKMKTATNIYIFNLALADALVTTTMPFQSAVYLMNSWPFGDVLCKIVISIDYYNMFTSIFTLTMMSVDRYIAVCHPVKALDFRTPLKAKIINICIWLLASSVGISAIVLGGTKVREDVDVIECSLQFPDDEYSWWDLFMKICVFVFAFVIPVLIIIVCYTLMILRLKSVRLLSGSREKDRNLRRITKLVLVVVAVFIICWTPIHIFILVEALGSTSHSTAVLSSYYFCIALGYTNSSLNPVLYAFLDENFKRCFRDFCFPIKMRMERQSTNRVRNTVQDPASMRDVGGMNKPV

Legend:
[1] = target: Delta-type opioid receptor (Rattus norvegicus, UniProt P33533); experiment: Binding affinity against Opioid receptor delta 1 isolated from rat brain membrane was determined using [3H][Ile]-deltorphin as radioligand
Mus musculus [2] = experiment: In vivo antinociceptive potency determined in tail-flick test in mice
Mu-type opioid receptor = Mu-type opioid receptor (Rattus norvegicus, UniProt P33535); experiment: Binding affinity against Opioid receptor mu 1 isolated from rat brain membrane was determined using [3H]DAMGO as radioligand
[3] = target: Kappa-type opioid receptor (Rattus norvegicus, UniProt P34975); experiment: Binding affinity against Opioid receptor kappa 1 isolated from rat brain membrane was determined using [3H]U-69593 as radioligand
Mus musculus [4] = experiment: In vivo antinociceptive potency determined in paraphenylquinone writhing test in mice
Mus musculus [5] = experiment: In vivo antinociceptive potency determined in hot plate assay in mice

SMILES | pKi [1] | ED50 (Mus musculus [2]) [µg/kg] | pKi (Mu-type opioid receptor) | pKi [3] | ED50 (Mus musculus [4]) [µg/kg] | ED50 (Mus musculus [5]) [µg/kg]
CCC[C@]12c3c4ccc(OC)c3O[C@@]1(C)C(=O)CC[C@@]2(OC)C(NC)C4 (stereo not given in full) | 7.88 | 30 | 9.82 | 7.57 | 9 | 30
C#CCOc1ccc2c3c1O[C@@]1(C)C(=O)C=C[C@@](OCCCc4ccccc4)(C(NC)C2)[C@@]31CCC (stereo not given in full) | 7.88 | 21 | 9.14 | 7.62 | 9 | 38
CCC[C@]12c3c4ccc(O)c3O[C@@]1(C)C(=O)C=C[C@@]2(OCCCc1ccccc1)C(NC)C4 (stereo not given in full) | 9.85 | 0.08 | 9.70 | 9.40 | 0.16 | 0.1
CCC[C@@]12c3c(ccc(OC)c3OC)CC(NC)[C@]1(OCCCc1ccccc1)C=CC(=O)[C@H]2C (stereo not given in full) [listing 1 of 2 here] | 9.12 |  | 9.19 | 8.65 |  | 
CCC[C@]12c3c4ccc(OC)c3O[C@@]1(C)C(=O)C=C[C@@]2(OCCCc1ccccc1)C(NC)C4 (stereo not given in full) | 8.20 | 4.4 | 9.21 | 7.60 | 1.7 | 2.6
CCC[C@@]12c3c(ccc(OC)c3OC)CC(NC)[C@]1(OCCCc1ccccc1)C=CC(=O)[C@H]2C (stereo not given in full) [listing 2 of 2 here] |  | 14 |  |  | 2.3 | 22
